OPERA 2.9 data: intrinsic clearance values

From the experimental data distributed with OPERA 2.9.

Intrinsic clearance (human, µL/min per 10^6 hepatocytes): higher is faster turnover, and 0 stands for none detected.

SMILES,Clint (µL/min/10^6 cells)
Clc1nc(Cl)nc(Nc2ccccc2Cl)n1,22.5
O=[N+]([O-])c1ccc(Cl)c(Cl)c1,387
CCSC(=O)N(CC)C1CCCCC1,34.48
C[C@]12CCC(=O)C=C1CC[C@@H]1[C@@H]2CC[C@@]2(C)[C@H]1CC[C@]2(C)O,12.7
Cc1cc(C(C)(C)c2ccc(O)c(C)c2)ccc1O,191
C1CC2OC2CC1C1CO1 (stereo unspecified),136
Cc1ccc(/N=C/N(C)/C=N/c2ccc(C)cc2C)c(C)c1,33.3
Cc1cc(N=Nc2ccccc2C)ccc1N,6.89
CCC(C)Nc1c([N+](=O)[O-])cc(C(C)(C)C)cc1[N+](=O)[O-] (stereo unspecified),31.35
C/C(=NC#N)/N(C)Cc1c[n]c(Cl)cc1,0
c1ccc(NNc2ccccc2)cc1,19
FC(F)(F)C(Cl)Cl,10.2
O.[Br-].[Br-].c1cc[n+]2c(c1)-c1cccc[n+]1CC2,0
Cc1cccc(C)c1N,8.96
CN(C)c1ccc(Cc2ccc(N(C)C)cc2)cc1,18.85
Cc1ccc([N+](=O)[O-])cc1,19.32
CCCCOC(=O)c1ccccc1C(=O)OCc1ccccc1,427
CCCCc1ccc(O)cc1,127
CCOP(=O)(OCC)Oc1nc(Cl)c(Cl)cc1Cl,43.3
Clc1ccc(-c2ccc(Cl)c(Cl)c2)cc1Cl,0
CC(C)N(C(=O)SCC(Cl)=C(Cl)Cl)C(C)C,2.89
CCCCC1(CC)C(=O)NC(=O)NC1=O,1.9
Clc1ccccc1,174.1
Cc1cc(C2CC2)nc(Nc2ccccc2)n1,37.77
CCCCN(CCCC)N=O,11.12
CN1C(=O)C(O)N=C(c2ccccc2)c2cc(Cl)ccc21 (stereo unspecified),2.336
COP(=S)(OC)Oc1ccc(SC)c(C)c1,87.2
CCOP(=O)(OCC)Oc1ccc([N+](=O)[O-])cc1,0
CCC(C)=O,10.07
O.O=P1(N(CCCl)CCCl)NCCCO1 (stereo unspecified),0
Clc1cccc(Cl)c1,200
[O-][N+](=O)/N=C1NCCN1Cc1ccc(Cl)[n]c1,2.81
Nc1c(Cl)cc([N+](=O)[O-])cc1Cl,4.43
Cn1cc(-c2ccccc2)c(=O)c(-c2cccc(C(F)(F)F)c2)c1,5.594
ClC=C(Cl)Cl,2.174
O=P(OC(CCl)CCl)(OC(CCl)CCl)OC(CCl)CCl,5.092
Cc1ccc(N)c(N)c1,8.27
C[N+](C)(C)CC1CO1.[Cl-] (stereo unspecified),0
CCC(C)c1ccc(O)cc1 (stereo unspecified),19.03
COc1cc(Cl)c(OC)cc1Cl,6.31
CS/C(C)=N/OC(=O)N(C)SN(C)C(=O)O/N=C(\C)SC,839
CCCSP(=O)(OCC)Oc1ccc(Br)cc1Cl (stereo unspecified),141
c1ccc(N=Nc2ccccc2)cc1,73.7
O=c1ccc(=O)[nH][nH]1,0
COc1ccc(O)c(C(C)(C)C)c1,7.06
Cc1cccc(N)c1,32.9
CCC(C)(C)c1ccc(O)cc1,20.96
CCOc1nc(NC)nc(NC(=O)NS(=O)(=O)c2ccccc2C(=O)OC)n1,1.08
CCOC(=O)C(Cl)Cc1cc(-n2nc(C)n(C(F)F)c2=O)c(F)cc1Cl (stereo unspecified),854
C[C@H]1CCCC(=O)CCCC=Cc2cc(O)cc(O)c2C(=O)O1,209
Oc1ccc(C2(c3ccc(O)cc3)c3ccccc3-c3ccccc32)cc1,22.4
COc1cc(-c2ccc(N)c(OC)c2)ccc1N.Cl.Cl,7.635

A selection of 5 entries from above:

{"smiles": "O.[Br-].[Br-].c1cc[n+]2c(c1)-c1cccc[n+]1CC2", "Clint (µL/min/10^6 cells)": "0"}
{"smiles": "Cn1cc(-c2ccccc2)c(=O)c(-c2cccc(C(F)(F)F)c2)c1", "Clint (µL/min/10^6 cells)": "5.594"}
{"smiles": "Oc1ccc(C2(c3ccc(O)cc3)c3ccccc3-c3ccccc32)cc1", "Clint (µL/min/10^6 cells)": "22.4"}
{"smiles": "ClC=C(Cl)Cl", "Clint (µL/min/10^6 cells)": "2.174"}
{"smiles": "CCCCC1(CC)C(=O)NC(=O)NC1=O", "Clint (µL/min/10^6 cells)": "1.9"}

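The OPERA project collected these measurements from public sources as training and test data for property models. The files give a single number for a compound and property, which may rest on several reports. Method and conditions are not stated for these values. The measured form (salt, isomer or mixture) is not always the one drawn. Some upstream entries may be estimates or bounds without being marked so.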